Values joined by “and” are separate entries in the source; they are usually repeats but may differ in a detail not shown here. Equal values may be shown once. This is one part of the list. Potency and affinity values are given separately. Active and inactive are the calls of the source. Rule as the data show it: active = inhibition above about 50%; inactive = the rest.
molecular target: Kappa-type opioid receptor (Homo sapiens) (UniProt P41145); test: kappa opioid receptor blockers – cell-based, luminescence, uHTS (AID 1778); conditions: KOR beta-arrestin recruitment, antagonist mode, at 10 µM, stronger effect = higher value

Chains of the proteins cited; added tags and fusions are not shown. Lines headed by an entry give the natural chain unless they say otherwise; changes in a name come on top.
UniProt P41145: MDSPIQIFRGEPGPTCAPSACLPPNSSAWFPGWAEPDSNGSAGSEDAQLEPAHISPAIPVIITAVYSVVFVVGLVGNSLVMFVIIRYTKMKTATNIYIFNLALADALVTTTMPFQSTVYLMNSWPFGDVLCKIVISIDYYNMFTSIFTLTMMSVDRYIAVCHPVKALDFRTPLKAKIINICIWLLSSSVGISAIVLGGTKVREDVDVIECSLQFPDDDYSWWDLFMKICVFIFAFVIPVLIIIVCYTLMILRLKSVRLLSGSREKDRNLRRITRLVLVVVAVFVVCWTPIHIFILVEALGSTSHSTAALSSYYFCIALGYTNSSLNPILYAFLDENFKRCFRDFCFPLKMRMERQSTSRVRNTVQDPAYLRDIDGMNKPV

SMILES | inhibition
CC(O)CNc1nc2ccccc2n1CC(=O)NCCc1ccc(Cl)cc1 (configuration not stated) | inactive: 9.6%
O=C(Nc1nc2ccccc2n1CCN1CCCCC1)C1CCCCC1 | inactive: 30.3%
CC(NC(=O)CCNC(=O)N1CCn2c1nc1ccccc12)c1ccccc1 (configuration not stated) | inactive: -56.2%
CC1Cc2ccccc2N1C(=O)Cn1cnc2c1c(=O)n(C)c(=O)n2C (configuration not stated) | inactive: -13.7%
Cn1c(=O)c2c(nc(CN3CCN(C(=O)c4ccco4)CC3)n2CC(N)=O)n(C)c1=O | inactive: -1.9%
CC(C)NC(=O)Cn1c(SCC(=O)N2c3ccccc3CC2C)nc2ccccc21 (configuration not stated) | inactive: -6.9%
O=C(c1ccc(Cl)cc1)N1CCn2c1nc1ccccc12 | inactive: -25.1%
CCOC(=O)CSc1nc2ccccc2n1CC(=O)N(C(C)C)C(C)C | inactive: -14.3%
O=S(=O)(c1ccccc1)N1CCn2c(nc3ccccc32)C1 | inactive: -32.6%
O=C1NCN(c2ccccc2)C12CCNCC2 | inactive: -19.1%
CCCS(=O)(=O)N1CCn2c(nc3ccccc32)C1 | inactive: -26.5%
CC(=O)NC(C)c1nc2ccccc2n1CC(=O)N1C(C)CCCC1C (configuration not stated) | inactive: 22.9%
Cc1ccc(CN2C(=O)c3ccccc3NC23CCN(Cc2ccccc2)CC3)cc1 | inactive: -39%
O=C(OC1CN2CCC1CC2)c1ccccc1 (configuration not stated) | inactive: 6.6%
CC(O)CNc1nc2ccccc2n1CC(=O)NC12CC3CC(CC(C3)C1)C2 (configuration not stated) | inactive: 10.1%
CC1CN(CCn2cnc3c(N)ncnc32)CC(C)O1 (configuration not stated) | inactive: 16.5%
O=C1CC(N2CCC(n3c(=O)[nH]c4ccccc43)CC2)C(=O)N1Cc1ccccc1 (configuration not stated) | inactive: -9.2%
Cc1ccc2c(c1)C1CN(C)CCC1N2C(=O)c1cccc(S(=O)(=O)N(C)C)c1 (configuration not stated) | inactive: 10.9%
O=C(CCCCCNC(=O)N1CCn2c1nc1ccccc12)NCc1ccc(F)cc1 | inactive: -2.8%
CC(C)N(C(=O)Cn1c(SCC(=O)Nc2nccs2)nc2ccccc21)C(C)C | inactive: 24.1%
Cc1ccc2c(c1)C1CN(C)CCC1N2S(=O)(=O)c1ccccc1 (configuration not stated) | inactive: -4%
CC(C)[C@H](NC(=O)N1CCn2c1nc1ccccc12)C(=O)NCCc1ccccc1 | inactive: 19.5%
CN1CCC(N(C)c2ccc(C(N)=O)cc2[N+](=O)[O-])CC1 | inactive: -41.5%

SMILES | inhibition
Cc1ccc2c(c1)C1CN(C)CCC1N2C(=S)NC(=O)c1ccc(Cl)cc1Cl (configuration not stated) | inactive: -8.9%
O=C(Cn1c(=O)n(CC(=O)NCc2ccccc2)c2ccccc21)NCc1ccccc1 | inactive: -4.5%
CC(/C=N\NC(=O)Cn1c(C)nc2ccccc21)=C\c1ccccc1 | inactive: -2.6%
CCCC(=O)Nc1ccc2c(c1)nc1n2CCN(CCOC)C1 | inactive: -21.8%
Cc1ccc(C)c(Cn2c(=O)c3c(nc4n3CCN4Cc3ccco3)n(C)c2=O)c1 | inactive: -10.1%
CCC(=O)N1C2C3N(C(=O)CC)C1C1N(C(=O)CC)C(C(N1C(=O)CC)N3C(=O)CC)N2C(=O)CC | inactive: -5.5%
Cn1c(=O)c2c(ncn2CC(=O)NC2CCCCC2)n(C)c1=O | inactive: 12.8%
COC(=O)c1cc2c(s1)N=C(c1ccccc1)N(C)P2(=O)N1CCOCC1 (configuration not stated) | inactive: -4%
CC(C)NC(=O)Cn1cnc2c1c(=O)n(C)c(=O)n2C | inactive: 10.4%
CC(/C=N/NC(=O)Cn1cnc2c1c(=O)n(C)c(=O)n2C)=C\c1ccco1 | inactive: -28.5%
Cn1c(=O)c2c(ncn2CC(=O)Nc2ccccc2N2CCOCC2)n(C)c1=O | inactive: 26.2%
CCc1cccc(CC)c1N(COC)C(=O)Cn1c(C(C)O)nc2ccccc21 (configuration not stated) | inactive: -10.7%
Cc1ccc(OP(=O)(Nc2ccccn2)Oc2ccc(C)cc2)cc1 | inactive: 8%
CC(=O)NC(SC(=S)N(CC(C)C)CC(C)C)C(Cl)(Cl)Cl (configuration not stated) | inactive: 12.7%
CCOC(=O)C1=C(Cn2cnc3ccccc32)NC(=O)NC1c1ccc(Cl)cc1 (configuration not stated) | inactive: -5.6%
Cc1ccccc1OP(=O)(Nc1ccccn1)Oc1ccccc1C | inactive: 4.9%
CCc1cccc(C)c1N(C(=O)Cn1c(CO)nc2ccccc21)C(C)COC (configuration not stated) | inactive: -34.2%
CC1CCCN(C(=O)Cn2cnc3c2c(=O)n(C)c(=O)n3C)C1 (configuration not stated) | inactive: 3.9%
CN(C)C(=O)Oc1noc2ccccc12 | inactive: -12.5%
Cc1ccc(OCCNC(=O)Cn2cnc3c(=O)n(C)c(=O)n(C)c32)cc1C | inactive: 18.2%
CN(C)CCn1cnc2ccccc21 | inactive: -24%
COCCNC(=O)Cn1c(=O)n(C)c2ccccc21 | inactive: 15.9%
Cn1c(=O)c2c(ncn2CC(=O)N2CCN(c3ccccc3)CC2)n(C)c1=O | inactive: 7.4%

SMILES | inhibition
COCCN1CCn2c(nc3cc(Nc4nnc(C)c5ccccc45)ccc32)C1 | inactive: 25.7%
Cc1ccc(C)c(S(=O)(=O)N2CCN(C(=O)Cn3c(C(F)(F)F)nc4ccccc43)CC2)c1 | inactive: 2%
COC(=O)C1=C(C)N=C2SCCC(=O)N2C1/C=C/c1ccccc1 (configuration not stated) | inactive: -5.4%
CC1CCN(C(=O)Cn2c(SCC(=O)Nc3nccs3)nc3ccccc32)CC1 | inactive: -34.1%
CCOC(=O)c1ccccc1NC(=O)Cn1c(-c2nonc2N)nc2ccccc21 | inactive: -155%
CC(C)NC(=O)CC1C(=O)N(Cc2ccccc2)C(C)c2nc3ccccc3n21 (configuration not stated) | inactive: 29.6%
C(=N\c1nc2ccccc2n1CCN1CCCCC1)/c1ccc2c(c1)OCO2 | inactive: 12.2%
O=P(Nc1nc2ccc(Cl)cc2s1)(c1ccccc1)c1ccccc1 | inactive: 24.5%
O=C(Cn1c(Cc2ccccc2)nc2ccccc21)NCc1ccc2c(c1)OCO2 | inactive: 7.3%
O=C(O)c1ccccc1[As](=O)(O)O | inactive: 19.3%
O=C(Cn1c(COc2ccccc2)nc2ccccc21)Nc1cc(Cl)cc(Cl)c1 | inactive: -23.5%
CC(=O)Nc1ccc([As](=O)(O)O)cc1 | inactive: 18.5%
Cn1c(=O)c2ncn(CC(=O)Nc3ccc4c5c(cccc35)CC4)c2n(C)c1=O | inactive: 29.7%
CCOc1cccc(N2C(=O)CC(n3cnc4ccccc43)C2=O)c1 (configuration not stated) | inactive: 14.2%
Cc1ccc2c(c1)C1CN(C)CCC1N2C(=O)c1ccccc1NS(=O)(=O)c1ccc(F)cc1 (configuration not stated) | inactive: -25.8%
O=C(Cn1c(NCCO)nc2ccccc21)NCC(F)(F)F | inactive: -19.7%
CC(C)[C@H](NC(=O)N1CCn2c1nc1ccccc12)C(=O)NCc1ccccc1Cl | inactive: -45%
O=C(Cn1cnc2ccccc21)NCc1ccccc1 | inactive: 20.8%
Cn1c(=O)n(CCN2CCOCC2)c(=O)c2c1nc1n2CCN1c1ccc(Oc2ccccc2)cc1 | inactive: -8%
COc1ccc(N2CCN(C(=O)Cn3cnc4c3c(=O)n(C)c(=O)n4C)CC2)cc1 | inactive: 9.4%
Cc1cccc(NC(=O)Cn2c(=O)n(C)c3ccccc32)c1 | inactive: -7.7%
COc1ccc(NC2CCN(C3CC(=O)N(c4ccc(F)c(Cl)c4)C3=O)CC2)cc1 (configuration not stated) | inactive: 21.8%
CCCCOC(=O)Cn1c(=N)n(CCN(CC)CC)c2ccccc21 | inactive: -13%

SMILES | inhibition
O=C(Cn1c(COc2ccccc2)nc2ccccc21)Nc1cccc(Cl)c1 | inactive: -27.4%
CCOP(=O)(Nc1ccccc1)OCC | inactive: -6.7% and inactive: 35%
CCOc1ccc2nc(NC(=O)Cn3cnc4c3c(=O)n(C)c(=O)n4C)sc2c1 | inactive: -51.1%
O=C(Cn1c(/C=C/c2ccccc2)nc2ccccc21)Nc1ccc(F)cc1 | inactive: 14.5%
Cc1csc2c(NC3CCN(Cc4ccccc4)CC3)ncnc12 | inactive: 7.9%
CCC(=O)Nc1nc2ccccc2n1CCN1CCOCC1 | inactive: 4%
Cc1cccc(OCC(O)Cn2c(=N)n(CCN3CCOCC3)c3ccccc32)c1 (configuration not stated) | inactive: -13.8%
O=C(CSc1nc2ccccc2n1CC(=O)N1CCCC1)NCc1ccc2c(c1)OCO2 | inactive: -46.9%
Cc1cc(SC(NC(=O)c2ccc(F)cc2)C(Cl)(Cl)Cl)ncn1 (configuration not stated) | inactive: -21.5%
c1ccc(CN2CCC(Nc3nc(-c4cccs4)nc4ccccc34)CC2)cc1 | inactive: -119%
Cc1ccc(NP(=O)(Oc2ccccc2F)Oc2ccccc2F)nc1 | inactive: 17.7%
Cn1c(=O)c2c(ncn2CC(=O)Nc2nc3ccc(F)cc3s2)n(C)c1=O | inactive: -29.5%
Cn1c(=O)c2c(ncn2CC(N)=O)n(C)c1=O | inactive: 1.2%
O=C(Cn1c(-c2cncs2)nc2ccccc21)NCc1ccccc1 | inactive: -4.8%
O=[N+]([O-])c1cc([N+](=O)[O-])c(CCN2CCOCC2)c([N+](=O)[O-])c1 | inactive: -7.3%
COc1ccc(N2C(=O)CC(n3c(CCCCO)nc4ccccc43)C2=O)cc1 (configuration not stated) | inactive: 19.5%
O=C(Nc1ccc2c(c1)nc1n2CCN(Cc2ccccc2)C1)c1cccs1 | inactive: -19.8%
O=C(CCC(=O)Nc1ccccc1)N/N=C/C=C/c1ccccc1 | inactive: 3.2%
CC1CN(Cc2nc3c(c(=O)[nH]c(=O)n3C)n2CCN2CCOCC2)CC(C)O1 (configuration not stated) | inactive: -5.6%
CC(C)NC(=O)Cn1c(SCC(=O)N2CCCCCC2)nc2ccccc21 | inactive: 21.1%
Cc1ccccc1NC(=O)Cn1cnc2c1c(=O)n(C)c(=O)n2C | inactive: -4.2%
O=C(Cn1c(COc2ccccc2)nc2ccccc21)Nc1cc(Cl)ccc1Cl | inactive: -5.2%
COc1ccc(CC(=O)N2CCC(Nc3nc4ccccc4n3Cc3ccc(F)cc3)CC2)cc1 | inactive: -7.8%

— PubChem BioAssay AID1778 (Sanford-Burnham Center for Chemical Genomics, 2009)
